Reference: PubChem BioAssay AID2540 (Sanford-Burnham Center for Chemical Genomics, 2010)
This is a selection; strong and weak results do not stand in their true shares. Calls of active or inactive are those of the source. No stated cut-off is given here; in the data, active means inhibition above about 50%; inactive means the rest.

By UniProt entry, the sequences of proteins in these tests, tags left out. Where a name states a change or a piece, a line headed by the entry shows the natural chain unless it says otherwise.
UniProt Q96LD8: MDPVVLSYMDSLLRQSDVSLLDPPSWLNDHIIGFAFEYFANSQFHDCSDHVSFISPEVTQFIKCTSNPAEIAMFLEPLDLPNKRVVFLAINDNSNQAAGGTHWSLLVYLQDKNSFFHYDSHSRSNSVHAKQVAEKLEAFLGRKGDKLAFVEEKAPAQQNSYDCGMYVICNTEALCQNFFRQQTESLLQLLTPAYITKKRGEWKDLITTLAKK

Molecular target: Sentrin-specific protease 8 (Homo sapiens) (UniProt Q96LD8)
Experiment: SENP8 protease inhibitors, primary screen, biochemical, luminescence (AID 2540)
Details: purified SENP8, Z-RLRGG-aminoluciferin cleavage, at 10 µM, stronger effect = higher value

Compound | inhibition
CC(=O)Nc1ccc([As](=O)(O)O)c(O)c1 | inactive: -2.03%
CC(=O)Nc1ccc(Oc2c([N+](=O)[O-])cc([N+](=O)[O-])cc2[N+](=O)[O-])cc1 | inactive: -4.79%
CC(=O)c1ccc(N2CC2c2ccncc2)cc1 (stereo not given) | inactive: -4.74%
Cc1ccccc1CN(C)C(=O)COC(=O)C(O)(c1ccccc1)c1ccccc1 | inactive: -9.89%
C[C@H]1OP(=O)(Oc2ccccc2)C[C@@H]2O[C@@H]21 (stereo not given in full) | inactive: 0.501%
C[C@@H]1C=CCP(=O)(Oc2ccccc2)O1 (stereo not given in full) | inactive: -1.82%
CC(C)(C)C(=O)NC(Sc1ccccc1)C(Cl)(Cl)Cl (stereo not given) | inactive: -0.875%
O=P1(Nc2nc3ccc(Cl)cc3s2)COc2ccccc2O1 (stereo not given) | inactive: -10.1%
CCOc1ccc(C2=NCC(CBr)S2)cc1 (stereo not given) | inactive: 0.574%
CC(NC(=O)COC(=O)C(O)(c1ccccc1)c1ccccc1)c1ccccc1 (stereo not given) | inactive: -4.07%
Cc1ccccc1OP(=O)(Nc1ccccn1)Oc1ccccc1C | inactive: -0.625%
CN(C)C(=O)Oc1noc2ccccc12 | inactive: 8.74%
COC(=O)c1cc2c(s1)N=C(c1ccccc1)N(C)P2(=O)N1CCOCC1 (stereo not given) | inactive: -0.61%
CC(=O)NC(SC(=S)N(CC(C)C)CC(C)C)C(Cl)(Cl)Cl (stereo not given) | inactive: -1.11%
Cc1ccc(OP(=O)(Nc2ccccn2)Oc2ccc(C)cc2)cc1 | inactive: 2.36%
O=C(OC1CN2CCC1CC2)c1ccccc1 (stereo not given) | inactive: -7.09%
CCC(=O)N1C2C3N(C(=O)CC)C1C1N(C(=O)CC)C(C(N1C(=O)CC)N3C(=O)CC)N2C(=O)CC | inactive: -1.09%
CCNC(=S)/N=C(\N)N[N+](=O)[O-] | inactive: 0.007%
O=C(NC1CCS(=O)(=O)C1)NP(=S)(Oc1ccccc1)Oc1ccccc1 (stereo not given) | inactive: 6.28%
c1ccc(-c2nn[nH]n2)c(-c2nn[nH]n2)c1 | inactive: -16.1%
Cc1ccc(NP(=O)(Oc2cccc(C)c2)Oc2cccc(C)c2)nc1 | inactive: -9.19%
CCOC(=O)NC(Sc1ccccc1)C(Cl)(Cl)Cl (stereo not given) | inactive: 5.48%
O=[N+]([O-])c1ccc2c(c1)nnn2O | inactive: 3.56%
CN(C)C(=O)c1cc([N+](=O)[O-])cc2c1-c1c(cc([N+](=O)[O-])cc1[N+](=O)[O-])C2=O | inactive: -8.78%
CN(C(=O)Cc1ccc(Cl)c(Cl)c1)[C@H]1CC[C@@]2(CCCO2)C[C@@H]1N1CCCC1 | inactive: 1.07%

Compound | inhibition
N#CCCN(C(=O)COC(=O)C(O)(c1ccccc1)c1ccccc1)c1ccc(F)cc1 | inactive: -10.7%
CCOP1(=S)c2c(C)nn(CCC#N)c2N=C(c2ccc(F)cc2)N1C (stereo not given) | inactive: 4.24%
CN(C(=O)Cc1ccccc1)[C@@H]1CC[C@]2(CCCO2)C[C@H]1N1CCCC1 | inactive: 5.88%
NC(=O)Nc1ccc([As](=O)(O)O)cc1 | inactive: 1.7%
Nc1ccccc1[As](=O)(O)c1ccccc1 | inactive: -3.3%
O=C(O)COc1ccc([As](=O)(O)O)cc1[N+](=O)[O-] | inactive: -8.09%
CS(=O)(=O)c1cc([N+](=O)[O-])c2no[n+]([O-])c2c1 | inactive: -2.62%
CCOP1(=S)c2c(C)nn(CCC#N)c2N=C(c2ccccc2F)N1C (stereo not given) | inactive: -4.1%
O=P(Nc1nccs1)(Oc1ccccc1)Oc1ccccc1 | inactive: -4.16%
O=P(Nc1nccs1)(c1ccccc1)c1nc2ccccc2s1 (stereo not given) | inactive: -0.174%
COc1cc(C2NCCC3(OCCO3)C2(C)C)cc(OC)c1OC (stereo not given) | inactive: -5.22%
CCOP(=O)(Nc1cccc2ccccc12)OCC | inactive: -4.38%
CCCOP(=S)(Nc1nc(N)cc(=O)[nH]1)OCCC | inactive: -6.55%
Cc1ccc(NCCc2c([N+](=O)[O-])cc([N+](=O)[O-])cc2[N+](=O)[O-])cc1 | inactive: 6.58%
Cc1cccc(OCC(=O)OC2CN3CCC2CC3)c1 (stereo not given) | inactive: -4.95%
O=[As](O)(c1cccc(O)c1)c1cccc(O)c1 | inactive: 3.04%
O=[As](O)(O)c1cccnc1 | inactive: 3.96%
COc1cc(C(=O)NCC2(N3CCOCC3)CCCCC2)cc(Cl)c1OC(C)C | inactive: 4.38%
CS(=O)(=O)c1ccc(Cl)c(NC(=O)COC(=O)C(O)(c2ccccc2)c2ccccc2)c1 | inactive: -1.44%
O=C(OC1CN2CCC1CC2)c1ccc(Cl)cc1 (stereo not given) | inactive: -0.278%
O=[As](O)(c1ccccc1Br)c1ccccc1Br | inactive: 5.26%
CC1(CBr)Cn2c(nc3ccccc3c2=O)S1 (stereo not given) | inactive: -5.54%
CC(C)/C=N\N=C(\N)N[N+](=O)[O-] | inactive: -5.92%
CN(C(=O)Cc1ccc(Cl)c(Cl)c1)[C@@H]1CCCC[C@H]1N1CCCC1 | inactive: -6.24%
COc1ccccc1CNC(=O)COC(=O)C(O)(c1ccccc1)c1ccccc1 | inactive: -2.67%
